A word on the IC50: it is the midpoint of a concentration-inhibition curve. Higher therefore signals weaker potency. What is called Kd is the equilibrium constant for the complex coming apart.

Sequences of proteins named here, by UniProt entry; tags and fusion partners are left off. A change or cut given only in a name is not applied to a line headed by its entry.
UniProt Q9RUB5: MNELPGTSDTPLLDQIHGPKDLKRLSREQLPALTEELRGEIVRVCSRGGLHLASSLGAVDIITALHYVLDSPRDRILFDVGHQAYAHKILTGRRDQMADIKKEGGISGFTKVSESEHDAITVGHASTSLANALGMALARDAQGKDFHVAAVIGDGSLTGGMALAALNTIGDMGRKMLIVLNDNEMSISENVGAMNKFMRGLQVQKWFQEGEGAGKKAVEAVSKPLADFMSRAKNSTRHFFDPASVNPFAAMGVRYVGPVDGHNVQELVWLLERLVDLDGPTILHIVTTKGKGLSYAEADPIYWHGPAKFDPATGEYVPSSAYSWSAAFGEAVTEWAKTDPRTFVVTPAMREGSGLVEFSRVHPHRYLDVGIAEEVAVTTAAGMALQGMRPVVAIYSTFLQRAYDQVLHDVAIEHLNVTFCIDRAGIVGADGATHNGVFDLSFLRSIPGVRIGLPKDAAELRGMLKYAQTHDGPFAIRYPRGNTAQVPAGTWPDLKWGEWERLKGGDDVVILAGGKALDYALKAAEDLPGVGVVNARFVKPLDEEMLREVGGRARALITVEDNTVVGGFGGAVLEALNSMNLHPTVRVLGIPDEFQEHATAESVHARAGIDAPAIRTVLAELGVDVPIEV

In test [1] the target is T1, drDXPS (Deinococcus radiodurans, UniProt Q9RUB5). The experiment in a line: biochemical.
Test [2] addresses T1, drDXPS. Put plainly: biochemical. The test is classed as binding.

For the molecule `O=C(CCCOc1ccc(Cl)cc1Cl)N/N=C/c1ccc(O)cc1F` [Compound 23], the IC50 on drDXPS [1] amounted to 34 µM. Besides, the Kd on drDXPS [2] stood at 160 ± 50 µM.

The record behind these values is PMC8188608 (Chemical Science, 2021).
